## Yeast mating assay B: variants of the scFv Ab-14

Data: MIT Lincoln Laboratory AlphaSeq set, Li et al. 2023, doi:10.1038/s41467-023-39022-2, as distributed in FLAb.

The target is the same throughout: PDVDLGDISGINAS, from the HR2 region of SARS-CoV-2 spike.

Parent scFv Ab-14: VH joined to VL by a 15-residue (Gly4Ser)3 linker. Changes lie in the light chain CDRs alone.
VH: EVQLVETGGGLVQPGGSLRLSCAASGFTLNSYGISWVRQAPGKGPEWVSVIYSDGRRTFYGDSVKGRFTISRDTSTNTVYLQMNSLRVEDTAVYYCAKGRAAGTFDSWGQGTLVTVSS
VL: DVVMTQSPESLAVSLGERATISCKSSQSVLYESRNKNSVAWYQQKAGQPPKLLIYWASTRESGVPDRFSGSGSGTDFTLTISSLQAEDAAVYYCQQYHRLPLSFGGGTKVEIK

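The parent was found by panning a naive human phage display library on the peptide. The variants were designed computationally from a first round of random CDR variants and then made and measured. Their group label is 14L_En_Gen (En: ensemble of fine-tuned language models; Gen: genetic algorithm). The scFvs were displayed on barcoded MATa yeast, the peptide on MATalpha yeast. Mating (16 h, 30 °C) was followed by selection of diploids and sequencing of their barcodes. Scores were corrected for input abundance and mapped to Kd with protein pairs of known affinity run in the same pool. There are six technical replicates.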

Variants are written as CDR1, CDR2 and CDR3 of the light chain (limits as in the source). Parent: KSSQSVLYESRNKNSVA, WASTRES, QQYHRLPLS. The read-out is the apparent dissociation constant on a log10 scale (nM): the lower, the stronger. Where no diploid with the target was found in that replicate, the entry reads "ND": below detection, most likely a poor binder, though not proof of it. A sequence measured in both rounds can read differently, since the two assays cover different ranges. Three control strains display no target. For all light chain designs, 4% of the pairings with them gave a signal, with a median of 2.64 and one signal in twenty below 1.59, so weak values seen in few replicates may be background. The control count says in how many pairings with the empty strains this scFv gave a signal, with their mean in brackets. The parent sequence was in this pool as ten entries: three were never detected, three once, and four in most replicates, with averages from 0.34 to 2.37. The authors' rule: three or more of the six replicates give a measured affinity, fewer mean a poor binder.

CDR-L1,CDR-L2,CDR-L3,"log10 Kd, replicates",signal with controls
HITYGMYVHGRYKSNIA,QAETREK,QQYDRLPLM,1.10 0.53 0.63 0.59 0.35 1.01,2/18 (3.18)
IVSQLMLWGSHAKNSIA,EAVTRLN,QQYDRLPLF,1.05 2.63 1.99 1.19 0.76 1.96,0/18
IVSQLMLWGYHAKNSIA,EAEMRTN,QQYDRLPLF,2.32 1.44 ND 1.13 1.90 1.69,1/18 (3.28)
IVSQLMLWGLHAKNSIA,EAEMRTN,QQYERLPLI,ND ND ND 2.03 ND ND,1/18 (1.56)
NIYQAMHTLSQNRNNVA,DVNERGS,QQYFRLPLS,-0.52 -0.64 -0.60 -0.75 -0.61 -0.54,0/18
HITYGMQVAGRHSKSIA,QAETREK,QQYDRLPLA,0.40 0.16 0.22 0.26 0.34 0.04,1/18 (2.58)
TISQMTSSFTQNINNVA,EVSTRCK,QQYDRLPLV,0.23 0.20 0.14 0.19 0.08 0.24,2/18 (3.06)
TISQVMNTLTRHGNNVA,DLQEREN,QQYFRLPLS,0.33 0.68 0.63 0.26 0.47 0.86,1/18 (1.56)
TLYGLSNSMSINKNSVA,EMTTREK,QQYDRLPLA,ND ND ND ND ND ND,0/18
HMSMLTMMGSRQRNSVA,QMTTREN,QQYDRLPLM,0.43 0.37 0.39 0.15 0.22 0.41,0/18
TLSQMSGLEAVKHNNVA,ENSTREK,QQYDRLPLS,ND 2.09 2.32 2.41 2.35 2.47,2/18 (3.18)
HMSMLTLMGMRQRNSVA,QMTMREN,QQYDRLPLM,2.02 1.24 1.52 1.25 1.32 1.29,1/18 (2.51)
TIGMFMDNLMQNRNNVA,DTSTLGS,QSYDRLPLS,0.94 0.95 0.73 2.00 0.93 1.04,0/18
MMSQVTGSGQRHRNNVA,QTSTREP,QQYDHLPLI,1.12 1.09 1.66 1.58 0.90 1.15,2/18 (2.78)
TLYGLSMSMSKNVNNVA,EMSTREN,QQYDRLPLS,0.99 0.27 0.34 0.63 0.20 0.84,1/18 (2.15)
TISQMTSLFSQSINNVA,EVSMREK,QQYDRLPLT,0.45 0.57 0.65 0.84 0.75 1.03,0/18
MVYQAAMMGGTARNSIA,NAQMRPD,QQYHRLPLI,0.54 0.26 0.34 0.46 0.44 0.75,1/18 (2.01)
KIGYNTGTESFRQDNIA,DNREREE,QQYYRLPLS,0.30 0.05 0.19 -0.15 -0.06 0.40,0/18
KVSEFTRGLMSRQDSIA,DNVTRNR,QQYDRLPLS,ND ND ND ND 2.05 ND,2/18 (2.47)
TIGQTLMYGKRNKNNVA,EVSERLN,QQYDRLPLI,2.57 1.25 1.89 1.73 1.99 2.34,0/18
TISQVLNTLTKTGNNVA,DLAEREQ,QQYFRLPLS,0.92 1.59 1.32 1.22 1.19 1.32,1/18 (3.20)
KIGITLNTLMHQKNNVA,DLVMREQ,QQYHRLPLS,0.82 0.69 0.54 0.49 0.77 0.62,0/18
KLTMVTGTEKVRGNNVA,EMETREN,QQYNRLPLA,-0.09 0.01 -0.20 -0.13 -0.22 0.17,1/18 (1.93)
MLSQMTGLGMKASNSVA,QASMRFD,QQYFRLPLI,1.23 1.42 0.98 1.69 2.02 1.67,0/18
TISGVMQSMSHSKSNVA,EVSMRLD,QQYVRLPLA,ND ND ND ND ND 2.14,0/18
KLSSITGHMQVEKNNVA,EMETREK,QQYNRLPLS,0.10 0.08 -0.12 0.05 0.04 0.02,1/18 (2.81)
MISSISSMGQFAKNSVA,QASLRNA,QQYDRLPLI,1.13 1.07 1.02 2.28 1.34 1.05,0/18
TISGMTNSAASKHNSVA,NVTMRPS,QQYHRLPLS,1.86 2.21 2.20 1.77 2.39 3.02,2/18 (2.93)
TISDVMGHLTRAHNNVA,DMDTRGD,QQYNRLPLS,-0.25 -0.47 -0.60 -0.53 -0.58 -0.40,0/18
IVSQLMLWGYHAKNSIA,EAVTRLN,QQYERLPLF,0.41 -0.24 -0.02 -0.16 0.39 -0.14,2/18 (2.41)
MISQLMNMGQFAINSVA,QASIRNS,QQYDRLPLM,1.60 1.46 1.43 2.04 1.29 1.85,1/18 (2.37)
KVSEFMKGLTMRTDSIA,DNNTRNS,QQYDRLPLS,1.72 1.93 2.75 1.23 1.54 3.27,0/18
HLSHMSGVESVKHNSVA,ENSTREQ,QQYDRLPLS,2.25 2.23 2.47 2.74 ND 2.80,0/18
KIGMTLNQLLHQKNNVA,DLVMREN,QQYFRLPLS,0.47 0.54 0.87 -0.19 0.75 1.38,1/18 (1.47)
MISQLMNMGQFAINSVA,QASIRNQ,QQYDRLPLI,ND ND ND 0.54 ND ND,0/18
KVSEFMKGLMMRTDSIA,DNQTRES,QQYDRLPLS,1.17 1.73 1.23 1.61 1.24 1.56,0/18
KVSEFMRGLMMRKDSIA,DNVTRSK,QQYDRLPLS,1.69 ND ND ND 1.44 ND,1/18 (1.32)
KISQTIRVGSTHGNSIA,EEVTRAK,QQYHRLPLA,1.29 1.22 1.06 1.04 1.18 1.46,0/18
MISQLYNMGTFTINSVA,QASQRNA,QQYDRLPLM,ND 2.10 ND 1.56 1.96 ND,0/18
KLTNVTGTEKVIGNNVA,EMETRER,QQYNRLPLS,1.94 1.19 0.73 1.32 1.50 0.32,0/18
TISQVMNTLTRHGNNVA,DLQEREE,QQYFRLPLE,0.29 -0.07 -0.15 -0.03 0.12 0.54,0/18
MISQLINMGSFAINSVA,QASLREE,QQYDRLPLM,1.01 0.19 0.69 0.34 0.66 0.59,0/18
MISQLYNMGQFAINSVA,QASQRNE,QQYDRLPLI,1.56 1.46 0.78 1.20 0.82 1.22,0/18
MIYGTQRELGLAANSIA,DNVTRYQ,QQYERLPLS,ND 2.59 ND ND 2.97 ND,2/18 (2.67)
IVSQLMLWGWHAKNSIA,EAQVRLN,QQYDRLPLM,ND ND ND ND 1.48 ND,0/18
MMSSVLHMLGAKKNSIA,DNQLRAD,QQYHRLPLM,0.21 0.15 0.32 0.27 0.18 0.22,1/18 (3.46)
MISQLYNMGSFAINSVA,QASLRNE,QQYDRLPLA,1.23 1.83 1.53 1.16 1.54 1.26,1/18 (1.91)
KLSEFMRGLMGRKDSIA,DNTTRGS,QQYDRLPLS,ND ND 2.64 3.33 ND ND,0/18